Data from patent US9040534B2 (Janssen Pharmaceutica NV, priority 2013, dated 2015).

Chains of the proteins cited; added tags and fusions are not shown. Lines headed by an entry give the natural chain unless they say otherwise; changes in a name come on top.
UniProt Q99572: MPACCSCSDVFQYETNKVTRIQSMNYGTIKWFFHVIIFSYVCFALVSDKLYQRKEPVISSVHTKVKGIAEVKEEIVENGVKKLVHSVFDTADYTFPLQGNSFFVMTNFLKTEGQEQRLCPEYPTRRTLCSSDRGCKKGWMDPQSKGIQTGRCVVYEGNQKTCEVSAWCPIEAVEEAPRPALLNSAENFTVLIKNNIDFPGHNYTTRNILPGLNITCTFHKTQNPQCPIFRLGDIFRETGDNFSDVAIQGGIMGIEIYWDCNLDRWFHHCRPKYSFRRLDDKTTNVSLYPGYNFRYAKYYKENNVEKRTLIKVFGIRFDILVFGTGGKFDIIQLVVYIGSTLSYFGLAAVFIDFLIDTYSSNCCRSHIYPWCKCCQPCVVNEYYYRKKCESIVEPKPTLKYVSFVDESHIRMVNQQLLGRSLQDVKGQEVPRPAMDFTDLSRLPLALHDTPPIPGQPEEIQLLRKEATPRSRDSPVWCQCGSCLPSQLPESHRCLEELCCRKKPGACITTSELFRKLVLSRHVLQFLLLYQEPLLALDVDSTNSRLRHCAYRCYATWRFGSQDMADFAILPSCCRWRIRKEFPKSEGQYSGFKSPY
UniProt Q64663: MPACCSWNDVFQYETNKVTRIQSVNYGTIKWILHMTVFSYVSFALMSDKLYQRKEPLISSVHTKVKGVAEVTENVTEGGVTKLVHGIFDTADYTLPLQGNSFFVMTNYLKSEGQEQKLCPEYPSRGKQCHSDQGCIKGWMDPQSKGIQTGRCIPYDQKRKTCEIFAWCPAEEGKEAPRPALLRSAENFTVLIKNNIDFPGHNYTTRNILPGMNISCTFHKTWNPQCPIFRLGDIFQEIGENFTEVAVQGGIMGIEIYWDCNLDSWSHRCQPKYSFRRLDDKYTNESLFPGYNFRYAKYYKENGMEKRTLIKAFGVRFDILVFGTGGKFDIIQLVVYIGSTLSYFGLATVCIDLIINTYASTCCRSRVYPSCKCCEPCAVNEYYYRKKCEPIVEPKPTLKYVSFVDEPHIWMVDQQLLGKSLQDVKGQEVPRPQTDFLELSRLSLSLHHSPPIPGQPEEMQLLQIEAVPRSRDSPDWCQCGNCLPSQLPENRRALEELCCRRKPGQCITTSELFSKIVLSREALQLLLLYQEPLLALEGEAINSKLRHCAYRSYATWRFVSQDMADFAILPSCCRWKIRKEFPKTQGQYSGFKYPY

Columns and labels:
P2X7 [1] = target: T1, P2X7 (Homo sapiens (Human), UniProt Q99572); assay: Radioligand binding, human P2X7-1321N1 cell membranes, tritiated A-804598 tracer; details: 1 hour at 4° C.
Protocol: (B) Radioligand binding: human or rat P2X7-1321N1 cells were collected and frozen @ −80° C. On the day of the experiment, cell membrane preparations were made according to standard published methods. […] The compound can be prepared as described in the literature. […] The assay was terminated by filtration (GF/B filters pre-soaked with 0.3% PEI) and washed with washing buffer (Tris-HCl 50 mM). The IC50 generated in the binding assay was corrected for tracer concentration and affinity of the tracer to derive at the affinity (Ki) of the test compounds.

rat P2X7 [2] = target: T2, rat P2X7 (Rattus norvegicus (Rat), UniProt Q64663); assay: Radioligand binding, rat P2X7-1321N1 cell membranes, tritiated A-804598 tracer; details: 1 hour at 4° C.
Protocol: (B) Radioligand binding: human or rat P2X7-1321N1 cells were collected and frozen @ −80° C. On the day of the experiment, cell membrane preparations were made according to standard published methods. The total assay volume was 100 μl:10 μl compound (10×)+(b) 40 μl tracer (2.5×)+50 μl membrane (2×). The tracer used for the assay was tritiated A-804598. The compound can be prepared as described in the literature. (Donnelly-Roberts, D. Neuropharmacology 2009, 56 (1), 223-229.) Compounds, tracer and membranes were incubated for 1 hour @ 4° C. The assay was terminated by filtration (GF/B filters pre-soaked with 0.3% PEI) and washed with washing buffer (Tris-HCl 50 mM). The IC50 generated in the binding assay was corrected for tracer concentration and affinity of the tracer to derive at the affinity (Ki) of the test compounds.

P2X7 [3] = target: T1, P2X7; assay: Ca2+ flux (FLIPR) in 1321N1 cells expressing recombinant human P2X7 channel; assay type: cell-based; details: 250 μM BzATP
Protocol: (§1) (A) Ca^2+ Flux: 1321N1 cells expressing the recombinant human, rat or mouse P2X7 channel was cultured in HyQ DME/(HyClone/Dulbecco's Modified Eagle Medium) high glucose supplemented with 10% Fetal Bovine Serum (FBS) and appropriate selection marker. Cells were seeded at a density of 25000 cells/well (96-well clear bottom black walled plates) in 100 μl volume/well. On the day of the experiment, cell plates were washed with assay buffer, containing (in mM): 130 NaCl, 2 KCl, 1 CaCl2, 1 MgCl2, 10 HEPES, 5 glucose; pH 7.40 and 300 mOs. After the wash, cells were loaded with the Calcium-4 dye (Molecular Device) and incubated in the dark for 60 minutes. Test compounds were prepared at 250× the test concentration in neat DMSO. Intermediate 96-well compound plates were prepared by transferring 1.2 μL of the compound into 300 μL of assay buffer. A further 3× dilution occurred when transferring 50 μL/well of the compound plate to 100 μL/well in the cell plate. Cells were incubated with test compounds and dye for 30 minutes. […] The fluorescence change was measured 180 seconds after adding the agonist.

rat P2X7 [4] = target: T2, rat P2X7; assay: Ca2+ flux (FLIPR) in 1321N1 cells expressing recombinant rat P2X7 channel; assay type: cell-based; details: 250 μM BzATP
Protocol: as §1

| SMILES | Ki (P2X7 [1]) | Ki (rat P2X7 [2]) | IC50 (P2X7 [3]) | IC50 (rat P2X7 [4]) |
| --- | --- | --- | --- | --- |
| CC(c1cccc(C(F)(F)F)c1Cl)N1C(=O)c2nnc(-c3cnccn3)n2C[C@@H]1C (some centres unmarked) [Example 93] | 0.159 µM | 0.0316 µM | 0.0881 µM | 3.05 µM |
| CC1Cn2c(nnc2-c2cnccn2)C(=O)N1Cc1cccc(C(F)(F)F)c1Cl (racemic) [Example 14, (±)-7-[2-Chloro-3-(trifluoromethyl)benzyl]-6-methyl-3-pyrazin-2-yl-6,7-dihydro[1,2,4]triazolo[4,3-a]pyrazin-8(5H)-one] | 0.004 µM |  | 0.0021 µM | 0.0495 µM |
| C[C@H]1Cn2c(nnc2-c2ncc(F)cn2)C(=O)N1Cc1cccc(C(F)(F)F)c1Cl [Example 34, (6S)-7-[2-Chloro-3-(trifluoromethyl)benzyl]-3-(5-fluoropyrimidin-2-yl)-6-methyl-6,7-dihydro[1,2,4]triazolo[4,3-a]pyrazin-8(5H)-one] |  | 0.0028 µM |  | 0.175 µM |
| C[C@H]1Cn2c(nnc2-c2cncc(Cl)c2)C(=O)N1Cc1cccc(C(F)(F)F)c1Cl [Example 52, (6S)-3-(5-Chloropyridin-3-yl)-7-[2-chloro-3-(trifluoromethyl)benzyl]-6-methyl-6,7-dihydro[1,2,4]triazolo[4,3-a]pyrazin-8(5H)-one] | 0.0079 µM |  | 0.0052 µM |  |
| C[C@@H]1Cn2c(nnc2-c2cnccn2)C(=O)N1Cc1cccc(C(F)(F)F)c1Cl [Example 15, (6R)-7-[2-Chloro-3-(trifluoromethyl)benzyl]-6-methyl-3-pyrazin-2-yl-6,7-dihydro[1,2,4]triazolo[4,3-a]pyrazin-8(5H)-one] | 0.912 µM |  | 9.25 µM | > 10 µM |
| C[C@H]1Cn2c(nnc2-c2cnccn2)C(=O)N1Cc1cccc(Cl)c1Cl [Example 13, (6S)-7-(2,3-Dichlorobenzyl)-6-methyl-3-pyrazin-2-yl-6,7-dihydro[1,2,4]triazolo[4,3-a]pyrazin-8(5H)-one] | 0.0014 µM |  | 0.001 µM | 0.103 µM |
| C[C@H]1Cn2c(nnc2-c2ccon2)C(=O)N1Cc1cccc(C(F)(F)F)c1Cl [Example 41, (6S)-7-[2-Chloro-3-(trifluoromethyl)benzyl]-3-isoxazol-3-yl-6-methyl-6,7-dihydro[1,2,4]triazolo[4,3-a]pyrazin-8(5H)-one] |  |  | 0.0264 µM | 2.78 µM |
| CC1Cn2c(nnc2-c2cnccn2)C(=O)N1Cc1cccc(Cl)c1Cl (racemic) [Example 11, (±)-7-(2,3-Dichlorobenzyl)-6-methyl-3-pyrazin-2-yl-6,7-dihydro[1,2,4]triazolo[4,3-a]pyrazin-8(5H)-one] | 0.0025 µM |  | 0.0018 µM | 0.301 µM |
| CC[C@H]1Cn2c(nnc2-c2ncccn2)C(=O)N1Cc1cccc(C(F)(F)F)c1Cl [Example 72, (6S)-7-[2-Chloro-3-(trifluoromethyl)benzyl]-6-ethyl-3-pyrimidin-2-yl-6,7-dihydro[1,2,4]triazolo[4,3-a]pyrazin-8(5H)-one] |  |  | 0.0009 µM | 0.0056 µM |
| C[C@H]1Cn2c(nnc2-c2ccc(F)cc2)C(=O)N1Cc1cccc(C(F)(F)F)c1Cl [Example 17, (6S)-7-[2-Chloro-3-(trifluoromethyl)benzyl]-3-(4-fluorophenyl)-6-methyl-6,7-dihydro[1,2,4]triazolo[4,3-a]pyrazin-8(5H)-one] | 0.0079 µM |  | < 0.001 µM |  |
| C[C@H]1Cn2c(nnc2-c2cnccn2)C(=O)N1Cc1ccc(Cl)cc1S(C)(=O)=O [Example 82, (6S)-7-[4-Chloro-2-(methylsulfonyl)benzyl]-6-methyl-3-pyrazin-2-yl-6,7-dihydro[1,2,4]triazolo[4,3-a]pyrazin-8(5H)-one] |  |  | 0.132 µM | > 10 µM |
| Cc1cnc(-c2nnc3n2C[C@H](C)N(Cc2cccc(C(F)(F)F)c2Cl)C3=O)cn1 [Example 19, (6S)-7-[2-Chloro-3-(trifluoromethyl)benzyl]-6-methyl-3-(5-methylpyrazin-2-yl)-6,7-dihydro[1,2,4]triazolo[4,3-a]pyrazin-8(5H)-one] |  |  | 0.02 µM | 3.16 µM |
| C[C@H]1Cn2c(nnc2-c2cnccn2)C(=O)N1Cc1c(Cl)cccc1Cl [Example 86, (6S)-7-(2,6-Dichlorobenzyl)-6-methyl-3-pyrazin-2-yl-6,7-dihydro[1,2,4]triazolo[4,3-a]pyrazin-8(5H)-one] | 0.0631 µM |  |  |  |
| C[C@H]1Cn2c(nnc2-c2ncccn2)C(=O)N1Cc1cccc(C(F)(F)F)c1Cl [Example 27, (6S)-7-[2-Chloro-3-(trifluoromethyl)benzyl]-6-methyl-3-pyrimidin-2-yl-6,7-dihydro[1,2,4]triazolo[4,3-a]pyrazin-8(5H)-one] | 0.002 µM |  | 0.0004 µM |  |
| C[C@@H]1Cn2c(nnc2-c2cnccn2)C(=O)N1Cc1cccc(Cl)c1Cl [Example 12, (6R)-7-(2,3-Dichlorobenzyl)-6-methyl-3-pyrazin-2-yl-6,7-dihydro[1,2,4]triazolo[4,3-a]pyrazin-8(5H)-one] | 1.58 µM |  | 0.931 µM | > 1 µM |
| CC(c1ccccc1)N1C(=O)c2nnc(-c3cnccn3)n2C[C@@H]1C (stereo partly drawn) [Example 92, (6S)-6-Methyl-7-(1-phenylethyl)-3-pyrazin-2-yl-6,7-dihydro[1,2,4]triazolo[4,3-a]pyrazin-8(5H)-one] | 0.0316 µM |  |  | 10 µM |
| CC[C@H]1Cn2c(nnc2-c2ncc(F)cn2)C(=O)N1Cc1cccc(C(F)(F)F)c1Cl [Example 75, (6S)-7-[2-Chloro-3-(trifluoromethyl)benzyl]-6-ethyl-3-(5-fluoropyrimidin-2-yl)-6,7-dihydro[1,2,4]triazolo[4,3-a]pyrazin-8(5H)-one] |  |  | < 0.001 µM | 0.126 µM |
| C[C@H]1Cn2c(nnc2-c2cnccn2)C(=O)N1Cc1ccc(F)cc1Cl [Example 78, (6S)-7-(2-Chloro-4-fluorobenzyl)-6-methyl-3-pyrazin-2-yl-6,7-dihydro[1,2,4]triazolo[4,3-a]pyrazin-8(5H)-one] |  |  | 0.0425 µM | 3.27 µM |
| C[C@H]1Cn2c(nnc2-c2cnccn2)C(=O)N1Cc1ccccc1Cl [Example 80, (6S)-7-(2-Chlorobenzyl)-6-methyl-3-pyrazin-2-yl-6,7-dihydro[1,2,4]triazolo[4,3-a]pyrazin-8(5H)-one] | 0.0316 µM |  |  |  |
| C[C@H]1Cn2c(nnc2-c2cnco2)C(=O)N1Cc1cccc(C(F)(F)F)c1Cl [Example 22, (6S)-7-[2-Chloro-3-(trifluoromethyl)benzyl]-6-methyl-3-(1,3-oxazol-5-yl)-6,7-dihydro[1,2,4]triazolo[4,3-a]pyrazin-8(5H)-one] |  |  | 0.0398 µM | 3.16 µM |
| C[C@H]1Cn2c(nnc2-c2cc[nH]n2)C(=O)N1Cc1cccc(C(F)(F)F)c1Cl [Example 28, (6S)-7-[2-Chloro-3-(trifluoromethyl)benzyl]-6-methyl-3-(1H-pyrazol-3-yl)-6,7-dihydro[1,2,4]triazolo[4,3-a]pyrazin-8(5H)-one] |  | 0.002 µM | 0.001 µM | 0.0069 µM |
| C[C@H]1Cn2c(nnc2-c2cscn2)C(=O)N1Cc1cccc(C(F)(F)F)c1Cl [Example 32, (6S)-7-[2-Chloro-3-(trifluoromethyl)benzyl]-6-methyl-3-(1,3-thiazol-4-yl)-6,7-dihydro[1,2,4]triazolo[4,3-a]pyrazin-8(5H)-one] |  |  | 0.0002 µM | 0.016 µM |
| C[C@H]1Cn2c(nnc2-c2cnn(C)c2)C(=O)N1Cc1cccc(C(F)(F)F)c1Cl [Example 24, (6S)-7-[2-Chloro-3-(trifluoromethyl)benzyl]-6-methyl-3-(1-methyl-1H-pyrazol-4-yl)-6,7-dihydro[1,2,4]triazolo[4,3-a]pyrazin-8(5H)-one] |  |  | 0.143 µM | > 10 µM |
| Cc1c(CN2C(=O)c3nnc(-c4cnccn4)n3C[C@@H]2C)cccc1C(F)(F)F [Example 85, (6S)-6-Methyl-7-[2-methyl-3-(trifluoromethyl)benzyl]-3-pyrazin-2-yl-6,7-dihydro[1,2,4]triazolo[4,3-a]pyrazin-8(5H)-one] |  |  | 0.0016 µM | 0.708 µM |
| C[C@H]1Cn2c(nnc2-c2ccc(F)cn2)C(=O)N1Cc1cccc(C(F)(F)F)c1Cl [Example 30, (6S)-7-[2-Chloro-3-(trifluoromethyl)benzyl]-3-(5-fluoropyridin-2-yl)-6-methyl-6,7-dihydro[1,2,4]triazolo[4,3-a]pyrazin-8(5H)-one] |  | 0.005 µM |  | 0.188 µM |
